Where “and” joins values, the source holds several entries; their conditions need not be identical. Equal entries are not always repeated.
Legend:
[1] = biological target: IgG1 heavy chain with CH3 construct 69 (L351D, L368E) and common light chain (human) [IgG part: P01857]
[2] = biological target: IgG1 heavy chain with CH3 construct 2 (K392D, K409D) and common light chain (human) [IgG part: P01857]
[3] = biological target: IgG1 heavy chain with CH3 construct 68 (T366K, L351K) and common light chain (human) [IgG part: P01857]
[4] = biological target: IgG1 heavy chain with CH3 construct 69 (L351D, L368E) and common light chain (human) [IgG part: P01857]; remark: listed apart in the source

Substance	% of the mixture (peak height) [1]	% of the mixture (peak height) [2] [%]	% bispecific IgG [3] [%]	% of sample [4] [%]
IgG1 heavy chain with CH3 construct 68 (T366K, L351K) and common light chain (from UniProt P01857-1)	30% and 33%			
IgG1 heavy chain with CH3 construct 69 (L351D, L368E) and common light chain (from UniProt P01857-1)		3	> 90	2
